6 compounds from patent US9161922B2, “Amine oxidase inhibitors” (Case Western Reserve University, priority 2005, dated 2015) can be followed below.

Sequences of proteins named here, by UniProt entry; tags and fusion partners are left off. Residues count along the entry.
UniProt Q29437, 17-762 limits assumed: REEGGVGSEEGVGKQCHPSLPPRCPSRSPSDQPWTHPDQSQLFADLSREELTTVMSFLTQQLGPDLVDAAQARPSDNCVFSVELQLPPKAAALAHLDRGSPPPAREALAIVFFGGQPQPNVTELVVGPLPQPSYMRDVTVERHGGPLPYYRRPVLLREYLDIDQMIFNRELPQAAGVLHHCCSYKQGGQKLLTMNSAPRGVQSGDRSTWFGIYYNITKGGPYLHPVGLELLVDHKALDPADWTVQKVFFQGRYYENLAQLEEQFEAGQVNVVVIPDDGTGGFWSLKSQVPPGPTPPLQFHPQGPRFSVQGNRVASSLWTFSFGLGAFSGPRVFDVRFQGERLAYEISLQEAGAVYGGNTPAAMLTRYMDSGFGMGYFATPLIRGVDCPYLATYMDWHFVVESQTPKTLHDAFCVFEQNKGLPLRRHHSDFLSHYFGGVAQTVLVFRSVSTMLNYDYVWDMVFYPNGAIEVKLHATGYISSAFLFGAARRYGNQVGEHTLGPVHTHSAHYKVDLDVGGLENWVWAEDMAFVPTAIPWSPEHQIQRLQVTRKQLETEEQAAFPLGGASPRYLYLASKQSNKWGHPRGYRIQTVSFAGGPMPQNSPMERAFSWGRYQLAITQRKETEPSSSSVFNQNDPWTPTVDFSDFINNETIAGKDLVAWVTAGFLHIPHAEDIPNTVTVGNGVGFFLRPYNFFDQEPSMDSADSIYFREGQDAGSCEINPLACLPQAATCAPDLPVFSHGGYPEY

The target of the assay is bovine plasma amine oxidase (BPAO) (Bos taurus (Bovine), UniProt Q29437). Nature of the assay: Inactivation of bovine plasma amine oxidase (benzylamine oxidation rate, absorbance at 250 nm). In kind it is biochemical. The note with it: for IC50: read-out: 5 min IC50 for BPAO, 5 min, Table 4.

Broadly, the IC50 is the point on the concentration scale where inhibition reaches its midpoint. For `NCC=C=CCCc1ccccc1`, the IC50 is 0.5 µM.

For the compound `NC/C=C\Cl`, the partition ratio (inactivation of BPAO, Table 1) worked out at 6.

Consider `NCC=C=Cc1ccccc1` (single isomer, unassigned) [Ph (R isomer)], for which the IC50 was 1.2 µM. For the compound `NCC=C=Cc1ccccc1` (single isomer, unassigned) [Ph (S isomer)], the half-maximal inhibitory concentration (IC50) came to 1.1 µM. As to `C=C=CCN`, the IC50 was determined as 0.5 µM. Turning to `CCC=C=CCN`, the IC50 was 0.5 µM.
